Measurements from article PMC7516017, “Organoids to Study Intestinal Nutrient Transport, Drug Uptake and Metabolism – Update to the Human Model and Expansion of Applications” (Frontiers in Bioengineering and Biotechnology, 2020).

Tested on: human duodenal organoids
Details: matrigel-embedded human duodenal organoids incubated in PBS containing FITC-dextran (4 kDa) for 30 minutes; fluorescence microscopy

Substance: Fluorescein isothiocyanate-dextran [4 kDa FITC-dextrans]
- translocation into the organoid lumen: confirming translocation
